EC50 data for 27 molecules are collected here from patent publication US12576087B2, “Aryloxypiperidine pyrazole compounds as indoleamine 2,3-dioxygenase inhibitors” (Merck Sharp & Dohme LLC, priority 2018, dated 2026).

By UniProt entry, the sequences of proteins in these tests, tags left out.
UniProt P14902, whole entry: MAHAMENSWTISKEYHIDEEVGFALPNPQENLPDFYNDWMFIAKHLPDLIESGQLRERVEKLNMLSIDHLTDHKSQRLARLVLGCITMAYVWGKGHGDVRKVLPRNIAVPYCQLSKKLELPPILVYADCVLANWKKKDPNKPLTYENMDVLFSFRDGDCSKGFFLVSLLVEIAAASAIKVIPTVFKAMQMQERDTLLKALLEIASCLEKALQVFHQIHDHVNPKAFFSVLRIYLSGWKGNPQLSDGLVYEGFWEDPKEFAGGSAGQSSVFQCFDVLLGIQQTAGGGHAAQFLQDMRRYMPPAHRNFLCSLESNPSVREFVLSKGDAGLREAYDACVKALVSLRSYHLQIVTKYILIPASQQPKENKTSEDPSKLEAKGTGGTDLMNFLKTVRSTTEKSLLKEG

This assay addresses IDO1 (Homo sapiens, UniProt P14902). Put plainly: IDO1 Cellular Assay in HeLa Cells Stimulated with IFNγ. Type of assay: cell-based. The settings on record: HeLa cells stimulated with IFNγ 100 ng/mL, about 48 hours.

For `O=C(c1nn(CC(=O)N2CCC(Oc3ccccc3Cl)C3CC32)c2c1[C@@H]1C[C@@H]1C2)N1CCC(OCCO)CC1` (single isomer, unassigned) [Example 169], the EC50 is 2.44 nM.

`Cc1cccnc1OC1CCN(C(=O)Cn2nc(C(=O)N3CCC(O)CC3)c3c2CCCC3)CC1` [Example 181, 2-(3-(4-Hydroxypiperidine-1-carbonyl)-4,5,6,7-tetrahydro-1H-indazol-1-yl)-1-(4-((3-methylpyridin-2-yl)oxy)piperidin-1-yl)ethanone] registered an EC50 of 8.19 nM. Compared with the last molecule, the EC50 is about 3.4-fold higher.

`Cc1ccc(OC2CCN(C(=O)Cn3nc(C(=O)N4C[C@@H](C)O[C@@H](C)C4)c4c3CCC4)CC2)cc1` [Example 95, 2-{3-[(2R,6S)-2,6-dimethylmorpholine-4-carbonyl]-5,6-dihydrocyclopenta[c]pyrazol-1(4H)-yl}-1-[4-(4-methylphenoxy)piperidin-1-yl]ethan-1-one] yielded an EC50 of 4.48 nM. Against the preceding molecule, the EC50 is about 1.8-fold lower.

Take `C[C@@H]1CN(C(=O)c2nn(CC(=O)N3CCCC(Oc4ccccc4Cl)C3)c3c2CCC3)C[C@H](C)O1` (stereo partly drawn) [Example 122, 1-[3-(2-chlorophenoxy)piperidin-1-yl]-2-{3-[(2R,6S)-2,6-dimethylmorpholine-4-carbonyl]-5,6-dihydrocyclopenta[c]pyrazol-1(4H)-yl}ethan-1-one]: the EC50 was 323 nM. This EC50 is about 72-fold higher than that of the molecule before.

Consider `C[C@@H]1CN(C(=O)c2nn(CC(=O)N3CCC(Oc4ccc5ncccc5c4)CC3)c3c2CCC3)C[C@H](C)O1` [Example 162, 2-{3-[(2R,6S)-2,6-dimethylmorpholine-4-carbonyl]-5,6-dihydrocyclopenta[c]pyrazol-1(4H)-yl}-1-{4-[(quinolin-6-yl)oxy]piperidin-1-yl}ethan-1-one], for which the EC50 was determined as 270 nM.

In the case of `CCOC(=O)c1nn(CC(=O)N2CC[C@@H](Oc3ncccc3Cl)C[C@H]2C)c2c1[C@@H]1C[C@@H]1C2` [Example 73, (3bR,4aR)-ethyl 1-(2-((2R,4R)-4-((3-chloropyridin-2-yl)oxy)-2-methylpiperidin-1-yl)-2-oxoethyl)-3b,4,4a,5-tetrahydro-1H-cyclopropa[3,4]cyclopenta[1,2-c]pyrazole-3-carboxylate], the EC50 was determined as 21.4 nM. Compared with the last molecule, the EC50 is about 13-fold lower.

`Cc1ccccc1OC1CCN(C(=O)Cn2nc(C(=O)N3CC[C@H](O)[C@@H](F)C3)c3c2CCCC3)CC1` [Example 23, 2-(3-((3S,4S)-3-fluoro-4-hydroxypiperidine-1-carbonyl)-4,5,6,7-tetrahydro-1H-indazol-1-yl)-1-(4-(o-tolyloxy)piperidin-1-yl)ethanone] gave an EC50 of 1.84 nM.

For the molecule `Cc1cc(F)ccc1OC1CCN(C(=O)Cn2nc(C(=O)N3CCC(F)(CO)CC3)c3c2CCC3)CC1` [Example 80, 2-[3-[4-fluoro-4-(hydroxymethyl)piperidine-1-carbonyl]-5,6-dihydro-4H-cyclopenta[c]pyrazol-1-yl]-1-[4-(4-fluoro-2-methyl-phenoxy)-1-piperidyl]ethanone], the EC50 came to 7.33 nM.

On to `Cc1ccccc1OC1CCN(C(=O)Cn2nc(C(=O)N3CCC(O)CC3)c3c2CCCCC3)CC1` [Example 32, 2-(3-(4-hydroxypiperidine-1-carbonyl)-5,6,7,8-tetrahydrocyclohepta[c]pyrazol-1(4H)-yl)-1-(4-(o-tolyloxy)piperidin-1-yl)ethanone], for which the EC50 is 3.09 nM.

As for `Cc1cccnc1OC1CC2CCC(C1)N2C(=O)Cn1nc(C(=O)N2CCC(O)CC2)c2c1CCCC2` (racemic) [Example 182, 2-(3-(4-Hydroxypiperidine-1-carbonyl)-4,5,6,7-tetrahydro-1H-indazol-1-yl)-1-(3-((3-methylpyridin-2-yl)oxy)-8-azabicyclo[3.2.1]octan-8-yl)ethan-1-one], the midpoint of the response, the EC50, lay at 954 nM.

`C[C@@H]1C[C@H](Oc2ncccc2F)CCN1C(=O)Cn1nc(C(=O)N2CCC(O)CC2)c2c1C[C@H]1C[C@@H]21` [Example 58, 1-((2R,4R)-4-((3-fluoropyridin-2-yl)oxy)-2-methylpiperidin-1-yl)-2-((3bR,4aR)-3-(4-hydroxypiperidine-1-carbonyl)-3b,4,4a,5-tetrahydro-1H-cyclopropa[3,4]cyclopenta[1,2-c]pyrazol-1-yl)ethanone]: the EC50 turned out to be 62.5 nM.

For `C[C@@H]1CN(C(=O)c2nn(CC(=O)N3CCC(Oc4cccc5cnccc45)CC3)c3c2CCC3)C[C@H](C)O1` [Example 156, 2-{3-[(2R,6S)-2,6-dimethylmorpholine-4-carbonyl]-5,6-dihydrocyclopenta[c]pyrazol-1(4H)-yl}-1-{4-[(isoquinolin-5-yl)oxy]piperidin-1-yl}ethan-1-one], a half-maximal response (EC50) required 46.9 nM.

`Cc1ccccc1OC1CCN(C(=O)Cn2nc(C(=O)N3CCN(C(=O)CO)CC3)c3c2CCC3)CC1` [Example 43, 2-hydroxy-1-(4-(1-(2-oxo-2-(4-(o-tolyloxy)piperidin-1-yl)ethyl)-1,4,5,6-tetrahydrocyclopenta[c]pyrazole-3-carbonyl)piperazin-1-yl)ethanone] came in with an EC50 of 14.4 nM.

`C[C@@H]1CN(C(=O)c2nn(CC(=O)N3CCC(Oc4ccccc4F)CC3)c3c2CCC3)C[C@H](C)O1` [Example 101, 2-{3-[(2R,6S)-2,6-dimethylmorpholine-4-carbonyl]-5,6-dihydrocyclopenta[c]pyrazol-1(4H)-yl}-1-[4-(2-fluorophenoxy)piperidin-1-yl]ethan-1-one] came in with an EC50 of 21.9 nM.

Molecule `C[C@@H]1CN(C(=O)c2nn(CC(=O)N3CCC(Oc4cccc(F)c4Br)CC3)c3c2CCC3)C[C@H](C)O1` [Example 158, 1-[4-(2-bromo-3-fluorophenoxy)piperidin-1-yl]-2-{3-[(2R,6S)-2,6-dimethylmorpholine-4-carbonyl]-5,6-dihydrocyclopenta[c]pyrazol-1(4H)-yl}ethan-1-one] yielded an EC50 of 80.6 nM.

Consider `CCOC(=O)c1nn(CC(=O)N2CCC(Oc3ncccc3Cl)CC23CC3)c2c1CCCC2` (single isomer, unassigned) [Example 65, (S or R)-ethyl 1-(2-(7-((3-chloropyridin-2-yl)oxy)-4-azaspiro[2.5]octan-4-yl)-2-oxoethyl)-4,5,6,7-tetrahydro-1H-indazole-3-carboxylate], for which the EC50 was 322 nM. This EC50 lies about 4-fold higher than the previous one.

`Cc1c(F)cccc1OC1CCN(C(=O)Cn2nc(C(=O)N3C[C@@H](C)O[C@@H](C)C3)c3c2CCC3)CC1` [Example 128, 2-{3-[(2R,6S)-2,6-dimethylmorpholine-4-carbonyl]-5,6-dihydrocyclopenta[c]pyrazol-1(4H)-yl}-1-[4-(3-fluoro-2-methylphenoxy)piperidin-1-yl]ethan-1-one] showed an EC50 of 1.48 nM.

`O=C(Cn1nc(C(=O)N2CCC(OCCO)CC2)c2c1CCCC2)N1CCC(Oc2ccccc2Cl)CC1` [Example 15, 1-(4-(2-chlorophenoxy)piperidin-1-yl)-2-(3-(4-(2-hydroxyethoxy)piperidine-1-carbonyl)-4,5,6,7-tetrahydro-1H-indazol-1-yl)ethanone]: the EC50 turned out to be 0.51 nM.

In the case of `C[C@@H]1CN(C(=O)c2nn(CC(=O)N3CCC(Oc4cc(F)ccc4F)CC3)c3c2CCC3)C[C@H](C)O1` [Example 149, 1-[4-(2,5-difluorophenoxy)piperidin-1-yl]-2-{3-[(2R,6S)-2,6-dimethylmorpholine-4-carbonyl]-5,6-dihydrocyclopenta[c]pyrazol-1(4H)-yl}ethan-1-one], the midpoint of the response, the EC50, lay at 27.6 nM.

On to `C[C@@H]1CN(C(=O)c2nn(CC(=O)N3CCC(Oc4cccc(OC(F)(F)F)c4)CC3)c3c2CCC3)C[C@H](C)O1` [Example 165, 2-{3-[(2R,6S)-2,6-dimethylmorpholine-4-carbonyl]-5,6-dihydrocyclopenta[c]pyrazol-1(4H)-yl}-1-{4-[3-(trifluoromethoxy)phenoxy]piperidin-1-yl}ethan-1-one], for which the EC50 came out at 402 nM.

In the case of `CCOC(=O)c1nn(CC(=O)N2CC[C@@H](Oc3ccccc3Cl)C[C@H]2C)c2c1CCCC2` [Example 11, ethyl 1-(2-((2R,4R)-4-(2-chlorophenoxy)-2-methylpiperidin-1-yl)-2-oxoethyl)-4,5,6,7-tetrahydro-1H-indazole-3-carboxylate], the EC50 was determined as 11.6 nM. Against the preceding molecule, the EC50 is about 35-fold lower.

In the case of `Cc1cc(F)ccc1OC1CCN(C(=O)Cn2nc(C(=O)N3CCO[C@H](CO)C3)c3c2CCCC3)CC1` [Example 81, 1-[4-(4-fluoro-2-methyl-phenoxy)-1-piperidyl]-2-[3-[(2S)-2-(hydroxymethyl)morpholine-4-carbonyl]-4,5,6,7-tetrahydroindazol-1-yl]ethanone], the EC50 turned out to be 8.26 nM. The EC50 values of the last two molecules are within 1.5-fold of each other.

For the molecule `O=C(Cn1nc(C(=O)N2CCC(O)(CF)CC2)c2c1CCCC2)N1CCC(Oc2cccc(Cl)c2)CC1` [Example 46, 1-(4-(3-chlorophenoxy)piperidin-1-yl)-2-(3-(4-(fluoromethyl)-4-hydroxypiperidine-1-carbonyl)-4,5,6,7-tetrahydro-1H-indazol-1-yl)ethanone], the EC50 came out at 24.4 nM. Against the preceding molecule, the EC50 is about 3-fold higher.

With `O=C(Cn1nc(C(=O)N2CC[C@H](O)[C@@H](F)C2)c2c1CCCC2)N1CCC(Oc2cccc(Cl)c2)CC1` [Example 42, 1-(4-(3-chlorophenoxy)piperidin-1-yl)-2-(3-((3S,4S)-3-fluoro-4-hydroxypiperidine-1-carbonyl)-4,5,6,7-tetrahydro-1H-indazol-1-yl)ethanone], the EC50 came out at 13.9 nM.

Turning to `C[C@@H]1CN(C(=O)c2nn(CC(=O)N3CCC(Oc4ccccc4OC(F)(F)F)CC3)c3c2CCC3)C[C@H](C)O1` [Example 100, 2-{3-[(2R,6S)-2,6-dimethylmorpholine-4-carbonyl]-5,6-dihydrocyclopenta[c]pyrazol-1(4H)-yl}-1-{4-[2-(trifluoromethoxy)phenoxy]piperidin-1-yl}ethan-1-one], the EC50 worked out at 18.4 nM. This EC50 and that of the molecule before are within 1.5-fold of each other.

For `Cc1ccccc1O[C@@H]1CCN(C(=O)Cn2nc(C(=O)N3CCC(OCCO)CC3)c3c2CCC3)[C@@H](C)C1` [Example 56, 2-(3-(4-(2-hydroxyethoxy)piperidine-1-carbonyl)-5,6-dihydrocyclopenta[c]pyrazol-1(4H)-yl)-1-((2S,4R)-2-methyl-4-(o-tolyloxy)piperidin-1-yl)ethanone], the EC50 was found to be 20.2 nM.

The molecule `CCOC(=O)c1nn(CC(=O)N2CC[C@H](Oc3ncccc3Cl)C[C@@H]2C)c2c1[C@@H]1C[C@@H]1C2` [Example 68, (3bR,4aR)-ethyl 1-(2-((2S,4S)-4-((3-chloropyridin-2-yl)oxy)-2-methylpiperidin-1-yl)-2-oxoethyl)-3b,4,4a,5-tetrahydro-1H-cyclopropa[3,4]cyclopenta[1,2-c]pyrazole-3-carboxylate] came in with an EC50 of 132 nM.
